Patent US9320741B2, “Compositions and methods for treating neoplasia, inflammatory disease and other disorders” (Dana-Farber Cancer Institute, Inc., priority 2010, dated 2016)

Target: BRD4(1) (Homo sapiens (Human), UniProt O60885)
Test: Alpha-assay acetyl-histone binding, BRD4 site 1
Conditions: 12-point dose response curve, read-out: Bio-assay IC50 BRD4(1)
Description: The binding activity of lead compounds with the BRD4 site 1 was determined by Alpha-assay with a 12-point dose response curve (FIG. 56A).
Assays were performed as described previously^8 with minor modifications from the manufacturer's protocol (PerkinElmer, USA). All reagents were diluted in 50 mM HEPES, 100 mM NaCl, 0.1% BSA, pH 7.4 supplemented with 0.05% CHAPS and allowed to equilibrate to room temperature prior to addition to plates. […] Plates were sealed and incubated for a further 30 minutes, before the addition of 4 μl of streptavidin-coated donor beads (25 μg/ml) and 4 μl nickel chelate acceptor beads (25 μg/ml) under low light conditions. Plates were foil-sealed to protect from light, incubated at room temperature for 60 minutes and read on a PHERAstar FS plate reader (BMG Labtech, Germany) using an AlphaScreen 680 excitation/570 emission filter set. IC50 values were calculated in Prism 5 (GraphPad Software, USA) after normalization against corresponding DMSO controls and are given as the final concentration of compound in the 20 μl reaction volume.

For `Cc1sc2c(c1C)C(c1ccc(Cl)cc1)=NC(CC(=O)NCCCN1CCN(C)CC1)c1nnc(C)n1-2` (stereo not shown) [JQ35], the IC50 was 0.0243 µM.
